Ab-14 light chain CDR variants: yeast mating affinities

The measurements come from Li et al. 2023 (doi:10.1038/s41467-023-39022-2) through the FLAb antibody collection.

The target is the same throughout: PDVDLGDISGINAS, from the HR2 region of SARS-CoV-2 spike.

Each scFv is VH, a (GGGGS)3 linker, VL, as in the parent Ab-14, and differs from it in the CDRs of the light chain only.
VH: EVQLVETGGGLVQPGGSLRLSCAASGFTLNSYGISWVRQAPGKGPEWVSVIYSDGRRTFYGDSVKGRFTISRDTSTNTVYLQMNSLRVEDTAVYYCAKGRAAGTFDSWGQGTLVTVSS
VL: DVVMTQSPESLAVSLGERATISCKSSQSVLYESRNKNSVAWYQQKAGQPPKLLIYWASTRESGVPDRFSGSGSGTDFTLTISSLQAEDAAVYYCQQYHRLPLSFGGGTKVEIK

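The parent was found by panning a naive human phage display library on the peptide. This is the validation round: designs drawn from the data on random variants, tested in the same kind of assay. Their group label is 14L_GP_HC (GP: Gaussian process model; HC: hill climbing; a sequence that several methods proposed may carry one label only). The assay is AlphaSeq: two haploid yeast populations carry antibody and antigen on their surface. Pairs that bind mate more often; barcode pairs of the diploids are counted by sequencing. Read counts were normalised to the haploid input and turned into Kd by a linear fit to BCL2-family pairs of known affinity, for each replicate. Each pool was mated in six replicate cultures.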

Variants are written as CDR1, CDR2 and CDR3 of the light chain (limits as in the source). Parent: KSSQSVLYESRNKNSVA, WASTRES, QQYHRLPLS. The read-out is the apparent dissociation constant on a log10 scale (nM): the lower, the stronger. "nd" means that the variant was in the library but no mating with the target was seen in that replicate; the authors take this as a sign of poor binding, and no number exists.

CDR-L1	CDR-L2	CDR-L3	replicates, log10 nM	control signals
KFSQWVLYESRVKNSVA	NASTRES	QQYHRLPLS	0.83 0.49 0.37 0.69 0.53 0.87	1 of 18 (2.24)
KFSQSVLLESRTKNNVA	NASTRES	QQYHRLPLS	-0.16 -0.45 -0.40 -0.47 -0.45 -0.19	0 of 18
KSSMSGLYESRNKNSVA	EASTRES	QQYHRLPLS	-0.05 0.18 -0.09 -0.17 0.01 0.02	5 of 18 (2.54)
KVSISYLLESRNKNSVA	EASTRER	QQYHRLPLS	0.44 0.40 0.14 0.08 0.14 0.34	0 of 18
KLRQSTLYESRNKNSVA	QASTRES	QQYHRLPLH	0.82 0.61 0.37 0.42 0.33 0.63	4 of 18 (3.33)
KTPQGVLYESRNKNSVA	NASVRES	QQYHRLPLS	0.22 0.18 0.18 -0.01 0.22 0.27	3 of 18 (2.95)
HLSDSVLYESRNKNSVA	NASTRES	QQYHRLPLD	0.74 0.81 0.99 0.11 0.40 0.67	1 of 18 (2.17)
KLEQGALYESRNKNSVA	GASTRES	QQYHRLPLS	-0.06 0.00 -0.46 -0.36 -0.02 -0.26	1 of 18 (1.79)
KSLQSVLYESRNKNSVA	HASTRED	QQYHRLPLI	1.55 1.36 1.09 1.93 1.89 1.83	0 of 18
KSSQSVAMESRNSNSVA	DASTRES	QQYHRLPLS	0.81 0.42 0.40 0.28 0.31 0.61	2 of 18 (2.74)
HSSPSVLYESRNKNNVA	NASTREE	QQYHRLPLS	-0.24 -0.18 -0.36 -0.46 -0.26 -0.15	0 of 18
KLRQSTYYESRNQNSVA	WASTRES	QQYHRLPLS	nd 3.26 nd 2.75 2.72 3.63	0 of 18
KVSQSVLYESGTKNSVA	NASARES	QQYHRLPLS	-0.26 -0.54 -0.68 -0.58 -0.26 -0.47	0 of 18
KFSQSVLYESRNKNSVA	NASTREK	QQYHRLPLS	-0.08 -0.08 -0.27 -0.35 -0.19 -0.38	1 of 18 (4.27)
KYSQSYHYESRNKNSVA	GASTRES	QQYHRLPLS	0.67 0.53 0.44 0.79 0.48 0.47	1 of 18 (1.97)
KMSQSVLQESRNKNSVA	DASTRES	QQYHRLPLS	0.31 -0.11 0.20 -0.18 0.06 0.32	1 of 18 (2.56)
KSSISYLYESENKNSVA	EASQRES	QQYHRLPLS	1.09 0.46 0.41 0.69 0.41 1.06	0 of 18
KVSQSFLYESRPKNAVA	GASTRES	QQYHRLPLS	0.29 0.06 -0.05 -0.06 0.05 0.07	1 of 18 (3.52)
KSEISYLYESRNKNSVA	EASTRES	QQYHRLPLS	0.66 0.93 0.47 0.85 0.58 0.99	0 of 18
HSSPSELYESRNGNSVA	NASMRES	QQYHRLPLS	0.38 0.70 0.79 0.55 0.47 0.57	0 of 18
IAVQSWLYESRNKNSVA	GASTRMS	QQYHRLPLI	1.82 0.96 2.36 1.16 1.54 1.36	2 of 18 (2.81)
KSSQSFLYESRNVNSVA	EASTRES	QQYHRLPLS	-0.08 -0.04 -0.24 -0.39 -0.31 -0.15	0 of 18
KSSISYMEESRNKNSVA	EASTRES	QQYHRLPLS	0.27 0.23 0.12 0.11 -0.03 0.15	1 of 18 (3.00)
KVSISYLLESRNKNSVA	EAHTRES	QQYHRLPLS	0.54 0.36 0.13 -0.10 0.01 0.38	1 of 18 (1.96)
KVSHSYLLESRNKNSVA	EASTRES	QQYHRLPLS	-0.09 -0.17 0.05 0.00 0.10 0.33	1 of 18 (1.46)
KFSQSVLYESRTSNSVA	NGSTRES	QQYHRLPLS	0.05 -0.02 -0.14 -0.13 -0.14 0.12	2 of 18 (2.98)
KSQQSVPYESRNKNNVA	HASTRED	QQYHRLPLS	0.26 -0.06 0.04 0.10 -0.11 0.42	3 of 18 (3.32)
KMSPSVLYESHNKNSVA	NASTRMS	QQYHRLPLS	0.13 0.04 -0.11 -0.17 -0.19 0.06	0 of 18
KVSQSVLGESRMKNSVA	DASTRCS	QQYHRLPLE	0.07 0.05 -0.13 -0.27 -0.03 0.09	3 of 18 (2.70)
KMSQSVLFEWRNKNSVA	DASTREW	QQYHRLPLS	0.63 0.51 0.37 0.32 0.62 0.51	0 of 18
KSSQSYHYESRNKNNVA	GASTRES	QQYHRLPLS	0.24 -0.06 -0.08 -0.18 -0.23 0.04	0 of 18
KFSQSVLYESTTMNSVA	NASTRES	QQYHRLPLS	0.29 0.20 0.14 -0.04 -0.22 0.02	1 of 18 (2.59)
KSSISESYESRNKNSVA	EASTRES	QQYHRLPLM	0.03 0.19 -0.01 -0.01 0.12 -0.01	1 of 18 (3.59)
KLSGSVLFESRNKNSVA	NASTRES	QQYHRLPLS	-0.26 -0.20 -0.50 -0.65 -0.45 -0.15	2 of 18 (3.27)
KLDMSTLYESRNKNSVA	WASTRES	QQYHRLPLS	0.39 0.17 0.23 0.35 0.09 0.25	2 of 18 (3.48)
KLRQSTLYESRNKNSVA	LASLRES	QQYHRLPLS	1.77 1.46 0.97 1.57 1.05 1.57	2 of 18 (2.39)
KQSQSVLYESRNKNSVA	GASTRES	QQYHRLPLD	2.12 1.45 1.15 1.78 1.56 1.85	1 of 18 (2.14)
KFSQSVLFQWRNKNSVA	DASTRES	QQYHRLPLS	0.06 0.27 -0.18 -0.03 -0.14 0.25	0 of 18
KSSQSVLMESRNANSVA	DASTRES	QQYHRLPLS	0.95 0.81 0.32 -0.02 0.69 0.84	0 of 18
KLLQSTLYESRNKNSVA	WASTRLS	QQYHRLPLS	1.92 1.41 1.29 1.23 1.35 1.42	1 of 18 (1.85)
KSSTSWLYESRNKNSVA	GASARES	QQYHRLPLS	0.14 -0.06 -0.28 -0.43 -0.02 -0.14	1 of 18 (4.66)
IAQQSWLYESRNKNSVA	GASTRES	QQYHRLPLI	0.27 0.26 0.13 0.16 0.11 0.33	2 of 18 (3.29)
KESQSGLYESRNKNSVA	GASTRES	QQYHRLPLS	-0.05 0.31 0.35 0.21 -0.20 -0.01	1 of 18 (2.06)
KFSQSVLYESRTYNSVA	NASQRES	QQYHRLPLS	0.04 -0.10 0.08 -0.11 -0.25 -0.10	0 of 18
KSSPSVLYESHNKNSVA	NASTRMD	QQYHRLPLS	0.04 0.07 -0.16 -0.40 0.35 0.24	0 of 18

Top 7 of the variants detected in all replicates, tightest first:

| CDR-L1 | CDR-L2 | CDR-L3 | replicates, log10 nM | control signals |
|---|---|---|---|---|
| KVSQSVLYESGTKNSVA | NASARES | QQYHRLPLS | -0.26 -0.54 -0.68 -0.58 -0.26 -0.47 | 0 of 18 |
| KLSGSVLFESRNKNSVA | NASTRES | QQYHRLPLS | -0.26 -0.20 -0.50 -0.65 -0.45 -0.15 | 2 of 18 (3.27) |
| KFSQSVLLESRTKNNVA | NASTRES | QQYHRLPLS | -0.16 -0.45 -0.40 -0.47 -0.45 -0.19 | 0 of 18 |
| HSSPSVLYESRNKNNVA | NASTREE | QQYHRLPLS | -0.24 -0.18 -0.36 -0.46 -0.26 -0.15 | 0 of 18 |
| KFSQSVLYESRNKNSVA | NASTREK | QQYHRLPLS | -0.08 -0.08 -0.27 -0.35 -0.19 -0.38 | 1 of 18 (4.27) |
| KSSQSFLYESRNVNSVA | EASTRES | QQYHRLPLS | -0.08 -0.04 -0.24 -0.39 -0.31 -0.15 | 0 of 18 |
| KLEQGALYESRNKNSVA | GASTRES | QQYHRLPLS | -0.06 0.00 -0.46 -0.36 -0.02 -0.26 | 1 of 18 (1.79) |

A sequence measured in both rounds can read differently, since the two assays cover different ranges. Empty control strains, which show no peptide, gave a signal in 4% of pairings with all light chain designs; the median was 2.64 and 95% of these signals were weaker than 1.59. No background was subtracted. The control count says in how many pairings with the empty strains this scFv gave a signal, with their mean in brackets. In the paper, a design with two or fewer of six values counts as a poor binder. Of ten entries with the parent sequence, four were seen in most replicates (averages 0.34 to 2.37), three in one and three in none, so single entries are noisy.